Experimental data reported in ChEMBL document CHEMBL3621161, “Conformationally restrained carbamoylcholine homologues. Synthesis, pharmacology at neuronal nicotinic acetylcholine receptors and biostructural considerations” (Eur J Med Chem, 2015).

Molecular target: Neuronal acetylcholine receptor; alpha4/beta4 (Rattus norvegicus, UniProt P09483+P12392)
Assay: Displacement of [3H]epibatidine from rat neuronal acetylcholine receptor subunit alpha4beta4 expressed in HEK293 cell membranes incubated for 4 hrs by scintillation counting method

CNC(=O)OCCC(C)N(C)C (stereo unspecified)
pKi: 5
